Assay results taken from ChEMBL document CHEMBL1126861 (J Med Chem, 1993).

Protein sequences, listed by entry. Tags and fused reporters are not part of them.
UniProt P33535, whole entry: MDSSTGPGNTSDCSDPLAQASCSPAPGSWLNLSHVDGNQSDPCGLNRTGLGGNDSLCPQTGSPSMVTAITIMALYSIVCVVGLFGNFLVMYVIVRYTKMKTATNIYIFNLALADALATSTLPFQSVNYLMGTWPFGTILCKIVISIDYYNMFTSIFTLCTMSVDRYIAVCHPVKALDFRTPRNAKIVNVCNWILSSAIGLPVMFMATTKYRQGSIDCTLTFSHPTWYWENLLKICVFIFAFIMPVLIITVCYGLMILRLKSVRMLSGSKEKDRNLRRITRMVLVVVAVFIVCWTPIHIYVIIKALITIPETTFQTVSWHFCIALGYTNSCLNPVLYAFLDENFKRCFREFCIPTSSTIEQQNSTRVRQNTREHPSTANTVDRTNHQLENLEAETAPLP

Target: Mu-type opioid receptor (Rattus norvegicus, UniProt P33535)
Test: Tested for binding affinity against mu opioid receptor fby displacing [3H]- DAMGO radioligand from rat brain membrane preparations

Oc1ccc2c3c1O[C@H]1c4[nH]c5ccccc5c4C[C@@]4(O)[C@@H](C2)N(CC2CC2)CC[C@]314 [NALTRINDOLE]
Ki: 3.86 nM
